{"sequences": {"note": "Protein sequences, listed by entry. Tags and fused reporters are not part of them. Residues count along the entry.", "UniProt P05121, 24-402, species assumed": "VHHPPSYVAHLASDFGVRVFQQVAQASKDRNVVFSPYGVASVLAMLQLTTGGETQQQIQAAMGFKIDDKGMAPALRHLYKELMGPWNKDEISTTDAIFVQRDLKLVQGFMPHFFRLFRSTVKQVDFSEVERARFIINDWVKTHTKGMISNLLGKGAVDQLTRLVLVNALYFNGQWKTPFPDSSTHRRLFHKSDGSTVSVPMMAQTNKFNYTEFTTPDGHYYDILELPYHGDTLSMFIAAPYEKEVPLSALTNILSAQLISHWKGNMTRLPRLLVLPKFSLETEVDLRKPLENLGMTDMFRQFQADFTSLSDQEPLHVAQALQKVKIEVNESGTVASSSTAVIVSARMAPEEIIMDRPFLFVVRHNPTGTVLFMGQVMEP"}, "source": "patent US9120744B2", "about": "“Plasminogen activator inhibitor-1 inhibitors and methods of use thereof to modulate lipid metabolism” (THE REGENTS OF THE UNIVERSITY OF MICHIGAN, priority 2007, dated 2015)", "origin": "cited, not measured here", "target": "PAI-1 (Homo sapiens (Human), UniProt P05121)", "conditions": "read-out: affinity for PAI-1; cited from earlier work", "data": [{"smiles": "O=C(O)C(=O)c1cn(Cc2ccccc2)c2ccc(-c3ccc(OC(F)(F)F)cc3)cc12", "note": "[PAI-039, tiplaxtinin]", "values": [{"measurement": "Kd", "result": "10 to 20", "unit": "µM"}]}]}
